# CycPeptMPDB entries from one study

PAMPA is the parallel artificial membrane permeability assay, which has no cells and reads passive diffusion. Caco-2 values are permeabilities across monolayers of Caco-2 human intestinal cells. Permeability is given as log10 of P in cm/s; higher (less negative) is more permeable.

For CC(C)C[C@@H]1NC(=O)[C@H](c2ccccc2)NC(=O)[C@@H](CC(C)C)NC(=O)[C@H](CC2CCCCC2)NC(=O)[C@@H](CCC(=O)N2CCCC2)NC(=O)[C@H]2CCCN2C1=O the data give PAMPA -4.85 (log10 cm/s).
For CC(C)C[C@@H]1NC(=O)[C@H](c2ccccc2)NC(=O)[C@@H](CC(C)C)NC(=O)[C@H](CCC(=O)N2CCCC2)NC(=O)[C@@H](CC(C)C)NC(=O)[C@H]2CCCN2C1=O the data give PAMPA -6.20 (log10 cm/s).
For CC(C)C[C@@H]1NC(=O)[C@@H](CC(C)C)NC(=O)[C@H]2CCCN2C(=O)[C@H](CC(C)C)NC(=O)[C@H](CCC(=O)N2CCCC2)NC(=O)[C@@H](CC(C)C)NC1=O the data give Caco-2 -6.70 (log10 cm/s).
For CC(C)C[C@@H]1NC(=O)[C@@H](CC(C)C)NC(=O)[C@@H](CC(C)C)NC(=O)[C@@H](CC(C)C)NC(=O)[C@H]2CCCN2C(=O)[C@H](CCC(=O)N2CCCC2)NC1=O the data give PAMPA -6.20 (log10 cm/s).
For CC(C)C[C@@H]1NC(=O)[C@H](CCc2ccccc2)NC(=O)[C@@H](CC(C)C)NC(=O)[C@H](CCC(=O)N2CCCC2)NC(=O)[C@@H](CC(C)C)NC(=O)[C@H]2CCCN2C1=O the data give PAMPA -5.98 (log10 cm/s).
For CC(C)C[C@@H]1NC(=O)[C@H](c2ccccc2)NC(=O)[C@@H](CC(C)C)NC(=O)[C@H](C)NC(=O)[C@@H](CCC(=O)N2CCCC2)NC(=O)[C@H]2CCCN2C1=O the data give PAMPA -6.11 (log10 cm/s).
For CC(C)C[C@@H]1NC(=O)[C@@H](CCC(=O)N2CCCC2)NC(=O)[C@H]2CCCN2C(=O)[C@H](CC(C)C)NC(=O)[C@H](CCc2ccccc2)NC(=O)[C@@H](CC(C)C)NC1=O the data give PAMPA -5.25 (log10 cm/s).
For CC(C)C[C@@H]1NC(=O)[C@H](CCc2ccccc2)NC(=O)[C@@H](CC(C)C)NC(=O)[C@H](CCC(=O)N2CCCC2)NC(=O)[C@@H](C)NC(=O)[C@H]2CCCN2C1=O the data give PAMPA -6.61 (log10 cm/s).
For CC(C)C[C@@H]1NC(=O)[C@H](c2ccccc2)NC(=O)[C@@H](CC(C)C)NC(=O)[C@H](CCC(=O)N2CCCC2)NC(=O)[C@@H](C)NC(=O)[C@H]2CCCN2C1=O the data give PAMPA -6.83 (log10 cm/s).
For CC[C@@H]1NC(=O)[C@@H](CC(C)C)NC(=O)[C@H](CC(C)C)NC(=O)[C@@H](CCC(=O)N2CCCC2)NC(=O)[C@H]2CCCN2C(=O)[C@H](CC(C)C)NC1=O the data give PAMPA -6.71 (log10 cm/s).
For CC(C)C[C@@H]1NC(=O)[C@@H](CC(C)C)NC(=O)[C@H](CC2CCCCC2)NC(=O)[C@@H](CCC(=O)N2CCCC2)NC(=O)[C@H]2CCCN2C(=O)[C@H](CC(C)C)NC1=O the data give PAMPA -5.05 (log10 cm/s).
For CC(C)C[C@@H]1NC(=O)[C@@H](CCC(=O)N2CCCC2)NC(=O)[C@@H](CC(C)C)NC(=O)[C@@H](CC(C)C)NC(=O)[C@H]2CCCN2C(=O)[C@H](CC(C)C)NC1=O the data give PAMPA -6.53 (log10 cm/s).
For CC(C)C[C@@H]1NC(=O)[C@@H](CC(C)C)NC(=O)[C@H](CC(C)C)NC(=O)[C@@H](CC(=O)N(C)C)NC(=O)[C@H]2CCCN2C(=O)[C@H](CC(C)C)NC1=O the data give PAMPA -6.56 (log10 cm/s).
For CC[C@@H]1NC(=O)[C@@H](CC(C)C)NC(=O)[C@H](CC2CCCCC2)NC(=O)[C@@H](CCC(=O)N2CCCC2)NC(=O)[C@H]2CCCN2C(=O)[C@H](CC(C)C)NC1=O the data give PAMPA -5.69 (log10 cm/s).
For CC(C)C[C@@H]1NC(=O)[C@@H](CC(C)C)NC(=O)[C@@H](CC(C)C)NC(=O)[C@@H](CCC(=O)N2CCCC2)NC(=O)[C@H]2CCCN2C(=O)[C@H](CC(C)C)NC1=O the data give PAMPA -5.77 (log10 cm/s).
For CC(C)C[C@@H]1NC(=O)[C@H](CCc2ccccc2)NC(=O)[C@@H](CC(C)C)NC(=O)[C@H](CC2CCCCC2)NC(=O)[C@@H](CCC(=O)N2CCCC2)NC(=O)[C@H]2CCCN2C1=O the data give PAMPA -4.87 (log10 cm/s).
For CC(C)C[C@@H]1NC(=O)[C@H](Cc2ccc3ccccc3c2)NC(=O)[C@@H](CC(C)C)NC(=O)[C@H](CCC(=O)N2CCCC2)NC(=O)[C@@H](CC(C)C)NC(=O)[C@H]2CCCN2C1=O the data give PAMPA -5.73 (log10 cm/s).
For CC[C@@H]1NC(=O)[C@@H](CC(C)C)NC(=O)[C@H](CCC(=O)N2CCCC2)NC(=O)[C@@H](CC2CCCCC2)NC(=O)[C@H]2CCCN2C(=O)[C@H](CC(C)C)NC1=O the data give PAMPA -6.39 (log10 cm/s).
For CC(C)C[C@@H]1NC(=O)[C@H](c2ccccc2)NC(=O)[C@@H](CC(C)C)NC(=O)[C@H](CCC(=O)N2CCCC2)NC(=O)[C@@H](CC2CCCCC2)NC(=O)[C@H]2CCCN2C1=O the data give PAMPA -5.49 (log10 cm/s).
For CC(C)C[C@@H]1NC(=O)[C@@H](CC(C)C)NC(=O)[C@@H](CC(C)C)NC(=O)[C@@H](CCC(=O)N2CCCC2)NC(=O)[C@@H](CC(C)C)NC(=O)[C@H]2CCCN2C1=O the data give PAMPA -5.99 (log10 cm/s).
For COC(=O)CC[C@H]1NC(=O)[C@H]2CCCN2C(=O)[C@H](CC(C)C)NC(=O)[C@H](CC(C)C)NC(=O)[C@@H](CC(C)C)NC(=O)[C@H](CC(C)C)NC1=O the data give PAMPA -5.72 (log10 cm/s).

The first 2 entries again:

{"smiles": "CC(C)C[C@@H]1NC(=O)[C@H](c2ccccc2)NC(=O)[C@@H](CC(C)C)NC(=O)[C@H](CC2CCCCC2)NC(=O)[C@@H](CCC(=O)N2CCCC2)NC(=O)[C@H]2CCCN2C1=O", "PAMPA (log10 cm/s)": "-4.85"}
{"smiles": "CC(C)C[C@@H]1NC(=O)[C@H](c2ccccc2)NC(=O)[C@@H](CC(C)C)NC(=O)[C@H](CCC(=O)N2CCCC2)NC(=O)[C@@H](CC(C)C)NC(=O)[C@H]2CCCN2C1=O", "PAMPA (log10 cm/s)": "-6.20"}

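The data file gives no further conditions (lipid, pH, time, direction or concentration), and values from different papers need not be comparable. Other peptides of the study may be missing here. Peptides that the database sets to -10, its floor, are left out.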

Source: CycPeptMPDB (Li et al. 2023), which took these values from Taechalertpaisarn et al. 2022, doi:10.1021/acs.jmedchem.2c00010.